From patent US20090162336A1

Molecular target: taxol-stabilized microtubules made from PC tubulin
Test: microtubule pelleting assay, htau40 (FIG. 36)

Dn (difference in stoichiometry upon phosphorylation) (tau/tubulin dimer) | Substance
0.09 | htau40 phosphorylated with MAP kinase (from UniProt P10636 1-441)
0.31 | htau40 phosphorylated with the brain extract kinase activity (from UniProt P10636 1-441)
